In paper PMC5908791 one finds Kd data, which are given here for 15 substances.

Broadly, the pKd is the negative decadic logarithm of the Kd, by convention in mol/L.

pKd: −log10 of the molar value.

This assay has as its target SOCS1/ElonginB/ElonginC ternary complex (human SOCS1 residues 53-211) (human) (UniProt O15524). Kind of assay: ITC; 10-40 uM SOCS1/ElonginBC in the cell, 80-400 uM peptide injected; 25 °C; 20 mM Tris-HCl pH 7.5, 150 mM NaCl, 2 mM beta-mercaptoethanol; Microcal ITC200.
As for JAK1 ALP ala pY+1 (peptide), the pKd was 6.80. Under JAK1 ALP ala pY+2 (peptide) stands 6.57; under JAK1 ALP ala pY+3 (peptide), 5.85; under JAK1 ALP ala pY+4 (peptide), 6.67. To JAK1 ALP ala pY+5 (peptide) belongs 5.95.

As to JAK1 ALP ala pY+6 (peptide), the pKd was 6.31. Under JAK1 ALP ala pY+7 (peptide) stands 6.49; under JAK1 ALP ala pY+8 (peptide), 6.63. To JAK1 ALP ala pY-1 (peptide) belongs 6.41; to JAK1 ALP ala pY-2 (peptide), 6.42; to JAK1 ALP ala pY-3 (peptide), 6.60.

Substance JAK1 ALP ala pY-4 (peptide) had a pKd of 6.72. JAK1 ALP ala pY-5 (peptide) had a negative-log Kd (pKd) of 6.43. To JAK1 ALP ala pY-6 (peptide) belongs 6.85. Under JAK1 ALP ala pY-7 (peptide) stands 6.94.
